Laboratory results from patent US10675268B2, “Somatostatin receptor subtype 4 (SSTR4) agonists” (Centrexion Therapeutics Corporation, priority 2013, dated 2020).

test: Metabolic stability in pooled human liver microsomes (half-life); type: in vitro ADME; settings: 37° C., 1 μM test compound
Method: The metabolic stability of the compounds according to the invention may be investigated as follows:
The metabolic degradation of the test compound is assayed at 37° C. with pooled human liver microsomes. The final incubation volume of 100 μl per time point contains TRIS buffer pH 7.6 at room temperature (0.1 M), magnesium chloride (5 mM), microsomal protein (1 mg/mL) and the test compound at a final concentration of 1 μM. Following a short preincubation period at 37° C., the reactions are initiated by addition of beta-nicotinamide adenine dinucleotide phosphate, reduced form (NADPH, 1 mM), and terminated by transferring an aliquot into solvent after different time points. After centrifugation (10000 g, 5 min), an aliquot of the supernatant is assayed by LC-MS/MS for the amount of parent compound. The half-life is determined by the slope of the semi-logarithmic plot of the concentration-time profile.

Row | SMILES | Half-life t1/2 [h]
1 | CC(C)(NC(=O)[C@H]1[C@@H]2CNC[C@@H]21)c1noc2c(C3CC3)cccc12 [Example 104] | >2.17
2 | Cc1nnc(C(C)(C)NC(=O)[C@H]2[C@@H]3CNC[C@@H]32)c2ccccc12 [Example 77] | >2.17
3 | CC(C)(NC(=O)[C@H]1[C@@H]2CNC[C@@H]21)c1cncc2ccccc12 [Example 90] | >2.17
4 | CC(C)(NC(=O)[C@H]1[C@@H]2CNC[C@@H]21)c1noc2c(Cl)cccc12 [Example 103] | >2.17
5 | Cc1cccc2c(C(C)(C)NC(=O)[C@H]3[C@@H]4CNC[C@@H]43)noc12 [Example 92] | >2.17
6 | CC(C)(NC(=O)[C@H]1[C@@H]2CNC[C@@H]21)c1ncnc2ccccc12 [Example 89] | >2.17
